In the NIST ThermoML archive (doi:10.1021/je600578u):

Experiments:
[1] = xn = mol fraction of the nth substance listed; conditions: 298.15 K, 101 kPa, Liquid
[2] = refractive index (Na D-line) (dimensionless); xn = mol fraction of the nth substance listed; conditions: 298.15 K, 101 kPa, Liquid, Standard Abbe refractometry
[3] = refractive index (Na D-line) (dimensionless); conditions: 298.15 K; 101.33 kPa; Liquid; Standard Abbe refractometry
[4] = 298.15 K; 101.33 kPa; Liquid

CCCCOCCCC [dibutyl ether] + c1ccccc1
[1], Vibrating tube method
Conditions | mass density [kg/m3]
x1 = 0.0502 | 863.1
x1 = 0.0999 | 853.73
x1 = 0.1999 | 837.31
x1 = 0.2999 | 823.35
x1 = 0.4 | 811.31
x1 = 0.4994 | 800.95
x1 = 0.6002 | 791.7
x1 = 0.6985 | 783.71
x1 = 0.8005 | 776.38
x1 = 0.9014 | 769.91
x1 = 0.9506 | 767.02

[2]
Conditions | refractive index
x1 = 0.0502 | 1.48717
x1 = 0.0999 | 1.47826
x1 = 0.1999 | 1.46325
x1 = 0.2999 | 1.45049
x1 = 0.4 | 1.43935
x1 = 0.4994 | 1.42978
x1 = 0.6002 | 1.42142
x1 = 0.6985 | 1.41407
x1 = 0.8005 | 1.40759
x1 = 0.9014 | 1.40163
x1 = 0.9506 | 1.39897

CCCCOCCCC [dibutyl ether] + CCO
Conditions | mass density, [1] [kg/m3] | refractive index, [2]
x1 = 0.0502 | 782.69 | 1.3643
x1 = 0.0997 | 780.5 | 1.36848
x1 = 0.1995 | 777.02 | 1.37548
x1 = 0.3 | 774.28 | 1.38028
x1 = 0.4 | 772.09 | 1.38429
x1 = 0.5003 | 770.31 | 1.38771
x1 = 0.6022 | 768.81 | 1.39046
x1 = 0.7013 | 767.53 | 1.39237
x1 = 0.8005 | 766.35 | 1.39414
x1 = 0.9014 | 765.28 | 1.3955
x1 = 0.9489 | 764.79 | 1.39608

CCCCOCCCC [dibutyl ether]
Conditions | mass density [kg/m3] | refractive index
[3] | – | 1.39646
[4] | 764.22 | –
